Read-outs that look alike come from different tables or passages of the source.
Test system: Jurkat cells (human T lymphoma)
Format: cell-based
Experimental: For Examples 7-11, metabolic labeling was monitored by treatment of cultured cells with the sugar analog peracetylated N-azidoacetylmannosamine (AzNAM), followed after harvest with treatment with the bifunctional click/fluorescent compound DBCO-PEG3-FAM (DPEG-FAM). Surface azide groups resulting from the metabolic labeling process react with the DBCO group (dibenzocyclooctyne) of DPEG-FAM, and were monitored by flow cytometry.
Jurkat cells (human T lymphoma; 10^5 cells/ml) were treated with or without 100 ng/ml human interferon-beta (IFNβ), for three days in culture. 22 hr prior to harvest, cell media were supplemented with […] AzNAM or control solvent only (DMSO). After harvest and washing, cells (10^6 cells/ml) were treated with 2 mM DPEG-FAM, washed, and subjected to flow cytometric analysis. It was found (see FIGS. 20A-20D) that the geometric mean fluorescence of AzNAM-cells was increased by IFNβ treatment (a 1.4-fold enhancement relative to the untreated value). […] FIGS. 20A-20D show flow cytometric analysis of human Jurkat cells after treatment with 100 ng/ml human IFN-beta for three days, with addition of 100 μM AzNAM at 22 hr prior to harvest. Cells were treated with DPEG-FAM prior to flow analysis.
With a lowered IFNβ dose of 75 ng/ml and the same general conditions as for Example 7, a similar pattern was seen (see FIGS. 21A-21D; 1.9-fold enhancement relative to the untreated value). As in Example 7, a biphasic response in the DMSO control cells was seen, but in many circumstances the smaller observed peak with stronger fluorescence is attributable to non specific uptake of the DPEG-FAM fluor, through a partial permeabilization effect of the treatments. FIGS. 21A-21D show flow cytometric analysis of human Jurkat cells after treatment with 75 ng/ml human IFN-beta for 3 days, with addition of 100 μM AzNAM at 22 hr prior to harvest. Cells were treated with DPEG-FAM prior to flow analysis.
The human STING agonist-1 (STAG-1′; MedChemExpress LLC) was tested for Jurkat cells in a similar experimental arrangement as for Examples 7 and 8. A metabolic labeling enhancement with STAG1 was seen, though modest (see FIGS. 23A-23D; 1.2-fold enhancement relative to the untreated value). The impact on control DMSO-treated cells was minimal. FIGS. 23A-23D show flow cytometric analysis of human Jurkat cells after treatment with 50 μM STING agonist 1 (STAG1) for 3 days, with addition of 100 μM AzNAM at 22 hr prior to harvest. Cells were treated with DPEG-FAM prior to flow analysis.

[1] = Jurkat, 100 ng/ml human IFNβ 3 days

IFNβ: human interferon-beta
enhancement of metabolic labeling relative to the untreated value (Jurkat, 75 ng/ml human IFNβ 3 days): 1.9 fold | enhancement of geometric mean fluorescence of AzNAM-cells relative to the untreated value [1]: 1.4 fold | fluorescence shift in control DMSO-treated cells compared to the AzNAM cells [1]: reduced magnitude | geometric mean fluorescence (GM) (Jurkats/AzNAM+IFNβ: 75 ng/ml human IFN-beta 3 days, 100 μM AzNAM 22 hr prior to harvest): 385.16 | geometric mean fluorescence (GM) (Jurkats/AzNAM+IFNβ: 100 ng/ml human IFN-beta 3 days, 100 μM AzNAM 22 hr prior to harvest): 150.15 | geometric mean fluorescence (GM) (Jurkats/DMSO+IFNβ: 75 ng/ml human IFN-beta 3 days, control solvent only): 19.40 | geometric mean fluorescence (GM) (Jurkats/DMSO+IFNβ: 100 ng/ml human IFN-beta 3 days, control solvent only): 16.66

From patent US20230414764A1, “Template Assembly by Proximity-Enhanced Reactivity via Metabolic Labeling” (The General Hospital Corporation, priority 2020, published 2023)
